Laboratory results: US20070142378A1, “Method of treating restless legs syndrome and/or periodic limb movement disorder with (2s,3s) 2-(3-chlorophenyl)-3,5,5-trimethyl-2-morpholinol” (Smith Kline Beecham Corporation, priority 2003, published 2007)
Structures can show the parent of a compound that is named as a salt.

The chains behind the UniProt entries cited, without tags or fusion partners.
UniProt Q01959, whole entry: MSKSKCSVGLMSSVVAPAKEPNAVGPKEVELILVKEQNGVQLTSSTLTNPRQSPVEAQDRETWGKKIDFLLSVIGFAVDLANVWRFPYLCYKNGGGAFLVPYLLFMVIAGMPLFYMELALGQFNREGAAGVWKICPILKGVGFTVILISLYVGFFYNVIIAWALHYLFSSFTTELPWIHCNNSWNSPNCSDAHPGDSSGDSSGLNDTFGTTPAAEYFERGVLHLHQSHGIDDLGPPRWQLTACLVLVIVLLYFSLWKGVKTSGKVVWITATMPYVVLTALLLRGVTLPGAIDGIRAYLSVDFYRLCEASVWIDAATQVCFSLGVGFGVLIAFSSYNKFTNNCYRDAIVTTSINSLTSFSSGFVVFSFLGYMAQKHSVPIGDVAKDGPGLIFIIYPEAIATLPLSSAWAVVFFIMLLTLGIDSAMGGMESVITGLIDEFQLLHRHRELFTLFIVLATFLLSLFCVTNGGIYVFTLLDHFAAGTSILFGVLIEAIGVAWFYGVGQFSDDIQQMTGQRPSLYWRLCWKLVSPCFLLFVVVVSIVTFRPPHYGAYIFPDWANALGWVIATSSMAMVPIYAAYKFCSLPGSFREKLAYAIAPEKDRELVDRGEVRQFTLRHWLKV

Molecular target: dopamine transporter (DAT) (Homo sapiens, UniProt Q01959)
Assay: Functional reuptake inhibition, CHO-K1/hDAT cells
Format: cell-based
Parameters: expressed in transfected cells; host or cells: CHO-K1
Details: mean±SEM, n=3
Experimental: Three separate cell-lines expressing human monoamine transporters for dopamine (hDAT) noradrenaline (hNET) and serotonin (hSERT) were used to measure the functional reuptake inhibiting properties of the compound of formula (I) (as its hydrochloride salt). The following methods were utilised.
Human dopamine transporter (hDAT): CHO-K1/hDAT cells (8×10^4 cells/well) expressing the human dopamine transporter (hDAT) were plated on 96-well format one day before the assay. Cells were preincubated with test compound and/or vehicle in modified Tris-HEPES buffer pH 7.1 at 25° C. for 20 minutes, then 50 nM [^3H]Dopamine was added to make the total volume to 200 μl and further incubated for 10 minutes. Cells in the well were then rinsed twice, solubilized with 1% SDS lysis buffer and the lysate was counted to determine [^3H]Dopamine uptake. Non-specific signal was determined in the presence of 10 μM nomifensine. […]
Compounds were screened at 10, 1, 0.1, 0.01 and 0.001 μM. These same concentrations were concurrently applied to a separate group of untreated cells and evaluated for possible compound-induced cytotoxicity only if significant inhibition of uptake was observed. Radioactivity retained on the filters was determined by scintillation counting overnight using a Packard scintillation counter.

## C[C@@H]1NC(C)(C)CO[C@@]1(O)c1cccc(Cl)c1 [Formula (I).HCl, (+)-(2S, 3S)2-(3-chlorophenyl)-3,5,5-trimethyl-2-morpholinol hydrochloride]
  IC50: 440 ± 10 nM
